Assay results from article PMC5787524, “Discovery of a FLT3 inhibitor LDD1937 as an anti-leukemic agent for acute myeloid leukemia” (Oncotarget, 2017).

System: MV-4-11 cells
Experiment: Cell viability / growth inhibition (EZ-Cytox), MV-4-11
Type: cell-based, human
Settings: 72 h; called IC50 in supplementary text
Procedure: MV-4-11 human acute myeloid leukemia cells were purchased from the American Type Culture Collection (ATCC, Rockville, MD, USA, CRL-9591), and the cells were cultured in IMDM medium (Sigma Co., St. Louis, MO, USA) supplemented with 10% fetal bovine serum, 1% penicillin/streptomycin and 4 mM L-glutamine (Life Technology, Grand Island, NY). Jurkat (human acute T lymphocytic leukemia, ATCC TIB-152) and K562 (human chronic myelogenous leukemia, ATCC CCL-243) cells were cultured in RPMI-1640 (Sigma Co.), and MCF7 (human breast adenocarcinoma, ATCC HTB-22) and PC-3 (human prostate adenocarcinoma, ATCC CRL-1435) cells were cultured in DMEM (Sigma Co.) medium supplemented with 10% fetal bovine serum and 1% penicillin/streptomycin. The cultured cells were incubated at 37°C with 5% CO2. Cell viability was assessed with a tetrazolium-based assay using the EZ-Cytox Cell Viability Assay kit (DaeilLab, Korea). Briefly, 2,000 ∼ 15,000 cells were plated in 96-well flat bottom plates in 100 µl of medium. The next day, the cells were treated with compounds along with dimethyl sulfoxide (DMSO, Fisher, Waltham, MA, USA) as a negative control. […] After incubation, the optical density (OD) was measured at a wavelength of 450 nm with a Victor multilabel reader (Perkin Elmer, Waltham, MA, USA). The IC50 was calculated with nonlinear regression using Prism version 5.01 (GraphPad, La Jolla, CA, USA).

With `COC(=O)c1ccc2c(c1)/C(=C1/Nc3ccccc3/C1=N\O)C(=O)N2` [Compound 1, Methyl (2Z,3E)-3-(hydroxyimino)-2′-oxo-[2,3′-biindolinylidene]-5′-carboxylate] the GI50 was 0.041 µM.
